Amino acid sequences for entries named in this document (tags omitted).
UniProt O14842, whole entry: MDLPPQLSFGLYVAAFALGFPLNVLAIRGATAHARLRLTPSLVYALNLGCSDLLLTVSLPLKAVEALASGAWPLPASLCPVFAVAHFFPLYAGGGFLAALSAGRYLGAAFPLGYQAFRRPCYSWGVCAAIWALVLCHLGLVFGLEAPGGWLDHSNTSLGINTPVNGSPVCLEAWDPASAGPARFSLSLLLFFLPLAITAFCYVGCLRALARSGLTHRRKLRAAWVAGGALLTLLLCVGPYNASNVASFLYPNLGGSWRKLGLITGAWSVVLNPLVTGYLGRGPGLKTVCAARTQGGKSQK

In patent publication US10968193B2, “Antidiabetic bicyclic compounds” (Merck Sharp & Dohme Corp., priority 2014, dated 2021):

Biological target: human GPR40 (Homo sapiens, UniProt O14842)
Experiment: Inositol Phosphate Turnover (IP1) Assay 3
Settings: read-out: Inositol Phosphate Turnover Assay 3, EC50, HEK cells stably expressing human GPR40, tested form: Na salt
Method: Human and mouse GPR40 stable cell-lines were generated in CHO cells stably expressing NFAT BLA (Beta-lactamase). A human GPR40 stable cell-line was generated in HEK cells stably expressing the aequorin expressing reporter. The expression plasmids were transfected using lipofectamine (Life Technologies) following manufacturer's instructions. Stable cell-lines were generated following drug selection.
Inositol Phosphate Turnover (IP1) Assay 3:
The assay was performed in 384-well format. HEK cells stably expressing human GPR40 were plated at 7500 cells per well in growth medium (DMEM/10% fetal calf serum). Cell plates were then incubated 16 hours at 37 degrees in a 5% CO2 incubator.
Measurement of Inositol Phosphate Turnover (IP) was performed using the CisBio IP-One kit (Part number 62IPAPEB). After the 16 hour incubation, the growth media was removed by centrifugation using the BlueWasher (AusWasher GUI Ver. v1.0.1.8) Protocol #21—“Light Dry” and 10 ul of stimulation buffer (prepared as described in the kit) was added to each well. […] The plates were then read in a Perkin Elmer EnVision or equivalent reader able to measure FRET. […] Data is normalized to % activity using a reference compound and EC50s determined using a standard 4-parameter fit.

How did the EC50 turn out when `COc1cc(-c2ccc([C@@H]3CCc4ccc([C@H](C5CC5)[C@H](C)C(=O)O)cc4O3)cc2CN(C)C2CCOC2)c(F)cn1` (single isomer, unassigned) was run?
The EC50 was 0.5 nM.
